Data published in US7799791B2, “Tetrahydrofuro(3,2-B) pyrrol-3-one derivatives as inhibitors of cysteine proteinases” (Amura Therapeutics Limited, priority 2007, dated 2010).

Protein sequences, listed by entry. Tags and fused reporters are not part of them. Residues count along the entry.
UniProt P43235, 115-329 limits assumed: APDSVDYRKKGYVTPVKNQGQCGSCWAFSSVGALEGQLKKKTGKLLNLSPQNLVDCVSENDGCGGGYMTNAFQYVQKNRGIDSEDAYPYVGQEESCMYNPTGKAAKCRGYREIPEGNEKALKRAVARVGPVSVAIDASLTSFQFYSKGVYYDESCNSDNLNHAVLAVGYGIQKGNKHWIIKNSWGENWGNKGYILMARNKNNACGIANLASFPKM

biological target: Human recombinant cathepsin K (Homo sapiens, UniProt P43235); assay: In vitro cathepsin Ki inhibition measurements; assay type: biochemical; details: read-out: Ki (nM) vs Human Cathepsin K, prior art WO-A-02057270 examples, Table 2

Ki | SMILES
> 8000 nM | O=C(N[C@@H](Cc1ccc(O)cc1)C(=O)N1CC[C@H]2OCC(=O)[C@H]21)c1cc2ccccc2s1
> 3500 nM | O=C(N[C@@H](CSCc1ccccc1)C(=O)N1CC[C@H]2OCC(=O)[C@H]21)c1ccccc1
> 20000 nM | O=C(N[C@@H](Cc1ccc(O)cc1)C(=O)N1CC[C@H]2OCC(=O)[C@H]21)c1ccc(-c2cccs2)cc1
> 15000 nM | O=C(N[C@@H](Cc1ccc(O)cc1)C(=O)N1CC[C@H]2OCC(=O)[C@H]21)c1ccc(OC(F)(F)F)cc1
> 20000 nM | O=C(N[C@@H](Cc1ccc(O)cc1)C(=O)N1CC[C@H]2OCC(=O)[C@H]21)c1ccoc1
> 40000 nM | O=C1CO[C@@H]2CCN(C(=O)[C@H](CC3CCCCC3)OC(=O)N3CCOCC3)[C@H]12
> 2000 nM | O=C(N[C@@H](CSCc1ccccc1)C(=O)N1CC[C@H]2OCC(=O)[C@H]21)c1ccsc1
> 2500 nM | O=C(N[C@@H](CSCc1ccccc1)C(=O)N1CC[C@H]2OCC(=O)[C@H]21)c1cc2ccccc2s1
> 6500 nM | O=C(N[C@@H](CSCc1ccccc1)C(=O)N1CC[C@H]2OCC(=O)[C@H]21)c1ccoc1
> 32000 nM | O=C1CO[C@@H]2CCN(C(=O)[C@H](CSCc3ccccc3)NC(=O)N3CCOCC3)[C@H]12
> 2000 nM | CC(C)CC(C(=O)N1CC[C@H]2OCC(=O)[C@H]21)c1cccc(-c2ccccc2)c1 (stereo partly drawn)
> 150 nM | COc1ccc(C(=O)N[C@@H](CC(C)C)C(=O)N2CC[C@H]3OCC(=O)[C@H]32)cc1
> 2000 nM | O=C(N[C@@H](CC1CCCCC1)C(=O)N1CC[C@H]2OCC(=O)[C@H]21)c1cc2ccccc2s1
> 25000 nM | O=C(Cc1ccccc1)N[C@@H](CSCc1ccccc1)C(=O)N1CC[C@H]2OCC(=O)[C@H]21
> 4000 nM | O=C(N[C@@H](CC1CCCCC1)C(=O)N1CC[C@H]2OCC(=O)[C@H]21)c1ccccc1
> 20000 nM | O=C(N[C@@H](CC1CCCCC1)C(=O)N1CC[C@H]2OCC(=O)[C@H]21)c1cccc2ccccc12
> 20000 nM | O=C(N[C@@H](CSCc1ccccc1)C(=O)N1CC[C@H]2OCC(=O)[C@H]21)c1cccc2ccccc12
> 2500 nM | CC(C)C[C@H](NC(=O)c1cccc2ccccc12)C(=O)N1CC[C@H]2OCC(=O)[C@H]21
> 1500 nM | CC(C)C[C@H](NC(=O)Cc1ccccc1)C(=O)N1CC[C@H]2OCC(=O)[C@H]21
> 36000 nM | O=C1CO[C@@H]2CCN(C(=O)[C@H](Cc3ccccc3)NC(=O)N3CCOCC3)[C@H]12

Ki | SMILES
> 67000 nM | O=C1CO[C@@H]2CCN(C(=O)C(CC3CCCCC3)OCc3ccccc3)[C@H]12 (stereo partly drawn)
> 2000 nM | CC(C)C[C@H](NC(=O)CCc1ccccc1)C(=O)N1CC[C@H]2OCC(=O)[C@H]21
> 100000 nM | O=C1CO[C@@H]2CCN(C(=O)[C@@H](CC(=O)N3CCOCC3)CC3CCCCC3)[C@H]12
> 50000 nM | CC(C)(C)c1ccc(C(=O)N[C@@H](Cc2ccc(Br)cc2)C(=O)N2CC[C@H]3OCC(=O)[C@H]32)cc1
> 10000 nM | O=C(CCc1ccccc1)N[C@@H](Cc1ccccc1)C(=O)N1CC[C@H]2OCC(=O)[C@H]21
> 40000 nM | O=C(Cc1ccccc1)N[C@@H](CC1CCCCC1)C(=O)N1CC[C@H]2OCC(=O)[C@H]21
> 8500 nM | O=C(Cc1ccccc1)N[C@@H](Cc1ccccc1)C(=O)N1CC[C@H]2OCC(=O)[C@H]21
> 100000 nM | O=C1CO[C@@H]2CCN(C(=O)[C@H](Cc3ccc(O)cc3)NC(=O)N3CCOCC3)[C@H]12
> 50000 nM | COc1ccc(C[C@H](NC(=O)c2ccc(C(C)(C)C)cc2)C(=O)N2CC[C@H]3OCC(=O)[C@H]32)cc1
> 16000 nM | O=C1CO[C@@H]2CCN(C(=O)[C@H](CC3CCCCC3)NC(=O)N3CCOCC3)[C@H]12
> 250 nM | CC(C)(C)C[C@H](NC(=O)c1ccsc1)C(=O)N1CC[C@H]2OCC(=O)[C@H]21
> 20000 nM | O=C(N[C@@H](Cc1cccc(O)c1)C(=O)N1CC[C@H]2OCC(=O)[C@H]21)c1ccc(-c2cccs2)cc1
> 2000 nM | O=C(N[C@@H](CC1CCCCC1)C(=O)N1CC[C@H]2OCC(=O)[C@H]21)c1ccsc1
> 10000 nM | O=C1CO[C@@H]2CCN(C(=O)[C@H](CC3CCCCC3)S(=O)(=O)Cc3ccco3)[C@H]12
> 50000 nM | CC(C)C[C@H](SCc1ccc(C(C)(C)C)cc1)C(=O)N1CC[C@H]2OCC(=O)[C@H]21
> 23000 nM | O=C(CCc1ccccc1)N[C@@H](Cc1ccc(O)cc1)C(=O)N1CC[C@H]2OCC(=O)[C@H]21
> 45000 nM | O=C(Cc1ccccc1)N[C@@H](Cc1ccc(O)cc1)C(=O)N1CC[C@H]2OCC(=O)[C@H]21
> 35000 nM | O=C(N[C@@H](Cc1ccccc1)C(=O)N1CC[C@H]2OCC(=O)[C@H]21)c1cccc2ccccc12
> 200 nM | Cc1ccc(C(=O)N[C@@H](CC(C)C)C(=O)N2CC[C@H]3OCC(=O)[C@H]32)cc1
